Source: patent US20210253518A1, “KINASE INHIBITOR” (NISSAN CHEMICAL CORPORATION, priority 2018, published 2021)

Protein sequences, listed by entry. Tags and fused reporters are not part of them. Residues count along the entry.
UniProt O95835, 589-1130 limits assumed: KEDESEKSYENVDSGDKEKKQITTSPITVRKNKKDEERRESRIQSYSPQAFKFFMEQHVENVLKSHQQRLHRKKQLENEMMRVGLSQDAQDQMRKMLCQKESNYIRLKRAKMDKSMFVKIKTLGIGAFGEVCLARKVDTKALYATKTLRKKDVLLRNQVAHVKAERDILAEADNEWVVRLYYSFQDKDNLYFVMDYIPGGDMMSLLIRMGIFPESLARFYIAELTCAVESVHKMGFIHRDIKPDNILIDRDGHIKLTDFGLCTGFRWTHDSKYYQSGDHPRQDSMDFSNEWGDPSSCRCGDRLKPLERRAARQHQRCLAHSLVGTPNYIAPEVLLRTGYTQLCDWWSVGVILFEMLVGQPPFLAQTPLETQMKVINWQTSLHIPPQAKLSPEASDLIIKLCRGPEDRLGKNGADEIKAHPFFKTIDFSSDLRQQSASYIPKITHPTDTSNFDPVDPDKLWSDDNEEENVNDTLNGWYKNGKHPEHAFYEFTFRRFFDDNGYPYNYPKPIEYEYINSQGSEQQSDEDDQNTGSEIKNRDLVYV
UniProt Q9NRM7, 553-1088 limits assumed: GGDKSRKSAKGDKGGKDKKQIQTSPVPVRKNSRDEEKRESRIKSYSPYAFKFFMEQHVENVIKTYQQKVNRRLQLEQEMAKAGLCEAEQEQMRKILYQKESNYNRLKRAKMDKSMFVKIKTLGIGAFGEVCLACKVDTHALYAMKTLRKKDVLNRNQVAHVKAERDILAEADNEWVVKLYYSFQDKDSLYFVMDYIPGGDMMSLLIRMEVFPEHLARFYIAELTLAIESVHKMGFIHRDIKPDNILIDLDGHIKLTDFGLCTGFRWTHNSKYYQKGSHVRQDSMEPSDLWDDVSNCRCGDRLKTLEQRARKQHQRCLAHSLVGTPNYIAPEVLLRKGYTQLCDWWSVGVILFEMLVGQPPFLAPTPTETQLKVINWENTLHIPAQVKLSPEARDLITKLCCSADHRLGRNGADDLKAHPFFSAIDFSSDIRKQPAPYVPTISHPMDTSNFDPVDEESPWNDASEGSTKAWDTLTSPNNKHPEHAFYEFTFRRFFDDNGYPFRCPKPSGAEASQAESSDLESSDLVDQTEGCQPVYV

Columns and labels:
[1] = tested on: YAP (phospho-S127 and total); experiment: YAP phosphorylation inhibitory action in SKOV3 cells (HTRF, YAP-total kit / YAP phospho-S127 kit); settings: 2D condition, 10 μM, 1 hr, Non-treatment as 100%
Experimental: Human ovarian cancer cell line SKOV3 (manufactured by DS Pharma Biomedical Co., Ltd) was precultured (single layer culture) in a 15% FBS-containing McCoy's 5a medium (manufactured by Sigma Ltd. Aldrich). The above-mentioned cells in the logarithmic growth phase were washed with PBS, a 0.25% (w/v) trypsin-1 mmol/L ethylenediaminetetraacetic acid (EDTA) solution (manufactured by Fujifilm Wako Pure Chemical Corporation) was added, and adherent cells were detached by incubating at 37° C. for 3 min. The above-mentioned medium was added and the mixture was centrifuged and resuspended in the same medium.
According to the method of patent document (WO 2014/017513), a composition of 10% FBS-containing DMEM medium (Phenol-red free, manufactured by FUJIFILM Wako Pure Chemical Corporation) containing 0.015% (w/v) deacylated gellan gum (KELCOGEL CG-LA, manufactured by SANSHO Co., Ltd.) was prepared using FCeM-series Preparation Kit (manufactured by FUJIFILM Wako Pure Chemical Corporation). […] The next day, the wavelengths at 665 nm and 615 nm were measured in the HTRF mode of EnVision (manufactured by PerkinElmer).
The obtained signal was calculated as follows. […]

LATS1 = LATS1 (Homo sapiens, UniProt O95835); experiment: Kinase Assay method (Fluorospark Kinase/ADP Multi-Assay Kit); settings: for IC50: read-out: LATS1 IC50, Kinase Assay method, 8 steps 10 μM to 0.3 nM
Experimental: (§1) For compound k-1:B-1 (racemate), GA-002A, GA-002B, GA-005A and GA-005B, inhibitory activity evaluation (calculation of IC50) was performed on LATS1 and LATS2 (manufactured by Carna Biosciences). The activity was measured using the Kinase Assay method described below. The compounds were added such that the test concentration of k-1:B-1 (racemate), GA-002A, GA-002B, GA-005A and GA-005B was in 8 steps (10 μM, 1 μM, 100 nM, […], 10 nM, 3 nM, 1 nM, 0.3 nM) from the final concentration of 10 μM to 0.3 nM.
(§2) As the analysis method of the data, the mean signal of the control well containing reaction components other than the evaluation compound was set to 0% inhibition, the mean signal without enzyme addition was set to 100% inhibition, and the inhibition rate was calculated from the mean signal of 2 wells of each test substance test. IC50 value was calculated using EXSUS (version 7.1.6, manufactured by CAC EXICARE Corporation).
(§3) 2 μL of a compound of the present invention solution at 2.5-fold concentration, 1 μL of substrate at 5-fold concentration (SGKtide: NH2—CKKRNRRLSVA-COOH, manufactured by SignalChem), ATP (manufactured by Sigma-Aldrich), MgCl2 (manufactured by FUJIFILM Wako Pure Chemical Corporation) solution (final concentration 10 μM, 400 μM or 5 mM), and 2 μL of kinase solution at 2.5-fold concentration (final concentration of LATS1 or LATS2 5 μg/mL), each prepared with assay buffer (20 mM HEPES, 0.01% Triton X-100, 2 mM DTT, pH 7.5), were mixed in the wells of a polypropylene 384-well plate (manufactured by Greiner Bio-One, #784900) and reacted at room temperature for 5 hr. Successively, 5 μL detection solution (Fluorospark (registered trade mark)Kinase/ADP Multi-Assay Kit; manufactured by FUJIFILM Wako Pure Chemical Corporation) was added, and the mixture was reacted at room temperature 30 min. Successively, 5 μL of a reaction quenching liquid (Fluorospark (registered trade mark) Kinase/ADP Multi-Assay Kit; manufactured by FUJIFILM Wako Pure Chemical Corporation) was added to discontinue the reaction. Thereafter, the ADP concentration of the reaction solution was quantified by EnSpire (manufactured by PerkinElmer) to detect the kinase reaction.

LATS2 = LATS2 (Homo sapiens, UniProt Q9NRM7); experiment: as above; settings: for IC50: read-out: LATS2 IC50, Kinase Assay method, 8 steps 10 μM to 0.3 nM
Experimental: as §1, §2, §3

Row | LARS1 inhibitory rate (%) (LATS1; 100 nM) | LARS1 inhibitory rate (%) (LATS1; 1000 nM) | IC50 (LATS1) | LARS2 inhibitory rate (%) (LATS2; 100 nM) | LARS2 inhibitory rate (%) (LATS2; 1000 nM) | IC50 (LATS2) | Compound | phosphorylated YAP (%) [1] | total YAP (%) [1]
1 | 101% | 101% | 0.00267 µM | 91% | 98% | 0.00823 µM | CC/C(=N\NC(=O)[C@@H](C)Nc1ccccc1)c1ccc(O)c(C)c1O | 10% | 86%
2 | 33% | 77% | 0.481 µM | 9% | 45% | 1.54 µM | CC/C(=N\NC(=O)[C@H](C)Nc1ccccc1)c1ccc(O)c(C)c1O |  | 
